# Apparent affinities of Ab-91 variants for a coronavirus HR2 peptide

From the AlphaSeq antibody data of Engelhart et al. 2022 (doi:10.1038/s41597-022-01779-4), copy in the FLAb collection.

Target peptide (SARS-CoV-2 spike, HR2 region): PDVDLGDISGINAS

Each scFv is VL, a (GGGGS)3 linker, VH, as in the parent Ab-91, and differs from it in the CDRs of the heavy chain only.
VL: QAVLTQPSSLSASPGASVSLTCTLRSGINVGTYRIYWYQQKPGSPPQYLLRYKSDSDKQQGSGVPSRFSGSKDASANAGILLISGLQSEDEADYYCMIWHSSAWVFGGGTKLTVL
VH: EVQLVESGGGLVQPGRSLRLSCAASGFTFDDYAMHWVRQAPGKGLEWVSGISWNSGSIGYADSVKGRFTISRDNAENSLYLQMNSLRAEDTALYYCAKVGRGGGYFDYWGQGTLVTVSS

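Phage display of a naive human antibody library on the peptide gave the parent. AAYL51 was designed without a model: most single CDR substitutions and a random sample of double and triple ones. Affinity was read by AlphaSeq, a pooled yeast mating assay with surface-displayed partners. After mating in shaken culture at 30 °C for 16 h, diploids were selected and their barcode pairs sequenced. The ratio of observed to expected reads was calibrated, replicate by replicate, on BCL2-family standards whose Kd was known from biolayer interferometry. Each pool was mated in three replicate cultures.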

Variants are written as CDR1, CDR2 and CDR3 of the heavy chain (limits as in the source). Parent: GFTFDDYAMH, GISWNSGSIGYADSVK, VGRGGGYFDY. Scale: log10 of Kd in nM, estimated from mating counts; low values are strong binders. A mean of the replicates is given; it leaves out those without a signal. An entry "n.d." has no value in the source: the pair was not observed among the diploids in that replicate. This suggests poor binding but is not conclusive. Background: pairings of library AAYL51 with three empty control strains gave a value in 21% of cases (median 4.54, 5th percentile 3.26). Values in that range, when seen in few replicates, are hard to tell from nonspecific mating. For each scFv, signals with the empty controls are counted beside the result, with their mean in brackets.

CDR-H1,CDR-H2,CDR-H3,"replicates, log10 nM",mean log10 Kd (nM),empty controls
GFTFDDYAMH,EISWNSGSIGYADSVK,VGRGGGYFNY,n.d. n.d. n.d.,n.d.,2/9 (4.35)
GFTFDDYAMH,GWSWNSNSIGYADSVK,VGRIGGYFDY,4.75 6.61 n.d.,5.68,6/9 (5.72)
GFTFDDYALH,GISWNSGSIGYADSVK,VGRGGPYFSY,n.d. n.d. 4.77,4.77,5/9 (4.71)
GFTFDDYAMH,GISWNSYSIGYADSVF,VGRGGGYFDE,4.70 n.d. n.d.,4.70,2/9 (3.79)
GFTFDFYAMH,GISWNSGSIGYADSVK,VGRGGGYFDY,0.73 0.74 0.14,0.54,0/9
MFTFDDYAMH,GISWNSGSIGYIDSVK,VRRGGGYFDY,4.36 5.36 5.55,5.09,5/9 (5.06)
GFTFDDYAMH,GASWISGSEGYADSVK,VGRGGGYFDY,4.91 4.12 4.98,4.67,6/9 (4.87)
GFTFTDYAMH,GISWNSGSIGYADSVK,VGRGHGYFDY,n.d. n.d. 4.56,4.56,1/9 (5.12)
GFTFDDYAMH,GISWNSGSIRYADMVK,VGRIGGYFDY,n.d. n.d. n.d.,n.d.,2/9 (4.29)
GFTFDDYAMH,GISWNGGSIGWACSVK,VGRGGGYFDY,4.70 n.d. n.d.,4.70,1/9 (3.76)
GFTFDDYIMH,GISWNKGSIGYADSVK,VGRGGGDFDY,3.95 5.24 4.38,4.53,5/9 (4.89)
GFTFDDYAMS,GISWNSGSIGYADSVK,VNRGGGYKDY,n.d. n.d. 4.89,4.89,2/9 (4.05)
GFTFDDHAMH,GISWNSGSIGYADHVK,VGRGGGYNDY,n.d. n.d. n.d.,n.d.,0/9
GFTFDDYAMH,GISWNSGSIGYADKVK,VGRGGGYQDY,4.67 3.80 3.58,4.02,1/9 (3.20)
GFTTDDYAMH,GIIWNSGSIGYADSVA,VGRGGGYFDY,n.d. n.d. n.d.,n.d.,1/9 (5.06)
GFTFDDYAMH,GISWNYGSIGYADSVK,AGRGGGYFDQ,n.d. 4.03 n.d.,4.03,2/9 (3.76)
GLTFDEYAMH,GISWNSGSQGYADSVK,VGRGGGYFDY,n.d. n.d. n.d.,n.d.,4/9 (4.60)
HFTFDDAAMH,GISWNSGSIGYADTVK,VGRGGGYFDY,3.54 3.08 n.d.,3.31,1/9 (4.11)
WFTFDDYAMH,VISWNSGSIGYADSVK,CGRGGGYFDY,n.d. n.d. n.d.,n.d.,3/9 (3.63)
GHTFDVYAMH,GISWNSGSIGYADSVK,VGRGFGYFDY,n.d. n.d. n.d.,n.d.,0/9
GFTFDDYAMH,PISWDSGSSGYADSVK,VGRGGGYFDY,5.72 3.53 5.24,4.83,2/9 (4.58)
GFTFDDYAMH,QISWNSGSIGYADSVN,VGRGGGYFPY,5.00 n.d. n.d.,5.00,1/9 (4.40)
GFTTDDYAMH,GISWNSGSIGYADSVW,VIRGGGYFDY,n.d. n.d. n.d.,n.d.,1/9 (3.18)
GFQFDDYAMH,GMSWPSGSIGYADSVK,VGRGGGYFDY,n.d. n.d. n.d.,n.d.,0/9
GFTFDDYATH,GISWNSGSIGYADSVK,VGRCGGYFDY,5.05 6.79 5.76,5.87,6/9 (5.32)
GFTFSDYAMH,GISWNSGSFGYADSVK,QGRGGGYFDY,n.d. 4.99 n.d.,4.99,2/9 (4.80)
GFTFDDYGMH,GLSWNSGSIGYADSVK,VGRGGAYFDY,4.50 4.77 4.66,4.64,7/9 (4.58)
GFTFDFYAMH,GISWNSGSIGYADSVK,VGRGCGYFDY,n.d. 3.73 n.d.,3.73,1/9 (3.25)
GFTFDDYAMA,GISWNSGSIGYTDSVK,VGRGGGYFDY,n.d. n.d. n.d.,n.d.,0/9
GTVFDDYAMH,GISWNSGSIGYADSVK,VGRGGGYFDP,n.d. n.d. n.d.,n.d.,0/9
GCTFDDYACH,GISWNSGSIGYADSVK,VGRGGGYFDY,4.58 n.d. 3.85,4.21,4/9 (4.82)
GFTFDYYAMH,GISWNSGSIYYHDSVK,VGRGGGYFDY,n.d. n.d. 1.51,1.51,0/9
GFTFDIYAMH,GISWNSGSIGYVDSVK,VCRGGGYFDY,6.23 5.54 5.25,5.68,6/9 (4.73)
GITFDDYAMH,GGSWNSGSIGYADSVK,DGRGGGYFDY,n.d. n.d. n.d.,n.d.,0/9
GFDFDDYAMH,GISWNSGSIGYANSVK,VGRGGGYFDY,2.16 2.31 1.83,2.10,9/9 (5.39)
GFTFDDYAMH,GIRWNSGSIGYADSVR,VGRSGGYFDY,n.d. 4.28 5.12,4.70,7/9 (4.96)
GATFDDYARH,GISWNSGSIGYADWVK,VGRGGGYFDY,n.d. n.d. n.d.,n.d.,0/9
GFTFYDYAMH,GIKWNSGSIGYADSMK,VGRGGGYFDY,5.07 n.d. n.d.,5.07,2/9 (4.20)
GFTFDDYAMH,GTSWNSGSIGYADSVK,VLKGGGYFDY,n.d. 3.93 4.71,4.32,4/9 (5.43)
GFTFDDYAMH,GISWNSGDIGYGDSVK,VGRGIGYFDY,2.38 2.44 2.47,2.43,5/9 (4.20)
GFTFDDYAMH,GISWNSGSIGYADIVK,QGRGGGYFDY,1.94 1.83 1.46,1.74,6/9 (4.85)
GFTFDDYAMH,GISWNSGSIGYADSGK,VGLGGGYFDW,2.79 2.72 3.82,3.11,2/9 (4.63)

The opening 4 entries, copied out:

| CDR-H1 | CDR-H2 | CDR-H3 | replicates, log10 nM | mean log10 Kd (nM) | empty controls |
|---|---|---|---|---|---|
| GFTFDDYAMH | EISWNSGSIGYADSVK | VGRGGGYFNY | n.d. n.d. n.d. | n.d. | 2/9 (4.35) |
| GFTFDDYAMH | GWSWNSNSIGYADSVK | VGRIGGYFDY | 4.75 6.61 n.d. | 5.68 | 6/9 (5.72) |
| GFTFDDYALH | GISWNSGSIGYADSVK | VGRGGPYFSY | n.d. n.d. 4.77 | 4.77 | 5/9 (4.71) |
| GFTFDDYAMH | GISWNSYSIGYADSVF | VGRGGGYFDE | 4.70 n.d. n.d. | 4.70 | 2/9 (3.79) |